Experimental data published in US20120077732A1, “CYCLIC PEPTIDES AND USES THEREOF” (SYDNEY WEST AREA HEALTH SERVICE, priority 2008, published 2012).

Test system: female Balb/c WT mice
Experiment: Dose and administration route tolerability of cyclic C1

Structure (SMILES): CC(C)C[C@@H]1NC(=O)[C@@H](CC(C)C)NC(=O)[C@H](CCCNC(=N)N)NC(=O)[C@@H](CC(C)C)NC(=O)CNC(=O)[C@@H](C(C)C)NC(=O)[C@H](CCCCN)NC(=O)[C@@H](CC(C)C)NC(=O)[C@H](CC(C)C)NC(=O)[C@@H](CC(C)C)NC1=O [C1, LDRLDLLDLLDKVDG]
- tolerability (200 μg intraperitoneal injection (group 3), listed as cyclic C1): did not tolerate
- tolerability (200 μg intraperitoneal injection (group 3), listed as cyclic C1 peptide): exhibit signs of distress
- tolerability (200 μg subcutaneous injection): did not cause any adverse effects
- tolerability (400 μg intraperitoneal dose): death of mice
- tolerability (50, 100 or 200 μg subcutaneous (groups 4-6), day 0): did not show any adverse effects except for some minor irritation (scratching) at the site of injection
- tolerability (50 or 100 μg intraperitoneal (groups 1 & 2), day 0, first 60 minutes, normal by 2 hours): appeared slightly distressed
